Data as given in ChEMBL document CHEMBL1129330, “Synthesis and pharmacological characterization of all sixteen stereoisomers of 2-(2'-carboxy-3'-phenylcyclopropyl)glycine. Focus on (2S,1'S,2'S,3'R)-2-(2'-carboxy-3'-phenylcyclopropyl)glycine, a novel and selective group II metabotropic glutamate receptors antagonist” (J Med Chem, 1996).

Amino acid sequences for entries named in this document (tags omitted). A change or cut given only in a name is not applied to a line headed by its entry.
UniProt Q14833: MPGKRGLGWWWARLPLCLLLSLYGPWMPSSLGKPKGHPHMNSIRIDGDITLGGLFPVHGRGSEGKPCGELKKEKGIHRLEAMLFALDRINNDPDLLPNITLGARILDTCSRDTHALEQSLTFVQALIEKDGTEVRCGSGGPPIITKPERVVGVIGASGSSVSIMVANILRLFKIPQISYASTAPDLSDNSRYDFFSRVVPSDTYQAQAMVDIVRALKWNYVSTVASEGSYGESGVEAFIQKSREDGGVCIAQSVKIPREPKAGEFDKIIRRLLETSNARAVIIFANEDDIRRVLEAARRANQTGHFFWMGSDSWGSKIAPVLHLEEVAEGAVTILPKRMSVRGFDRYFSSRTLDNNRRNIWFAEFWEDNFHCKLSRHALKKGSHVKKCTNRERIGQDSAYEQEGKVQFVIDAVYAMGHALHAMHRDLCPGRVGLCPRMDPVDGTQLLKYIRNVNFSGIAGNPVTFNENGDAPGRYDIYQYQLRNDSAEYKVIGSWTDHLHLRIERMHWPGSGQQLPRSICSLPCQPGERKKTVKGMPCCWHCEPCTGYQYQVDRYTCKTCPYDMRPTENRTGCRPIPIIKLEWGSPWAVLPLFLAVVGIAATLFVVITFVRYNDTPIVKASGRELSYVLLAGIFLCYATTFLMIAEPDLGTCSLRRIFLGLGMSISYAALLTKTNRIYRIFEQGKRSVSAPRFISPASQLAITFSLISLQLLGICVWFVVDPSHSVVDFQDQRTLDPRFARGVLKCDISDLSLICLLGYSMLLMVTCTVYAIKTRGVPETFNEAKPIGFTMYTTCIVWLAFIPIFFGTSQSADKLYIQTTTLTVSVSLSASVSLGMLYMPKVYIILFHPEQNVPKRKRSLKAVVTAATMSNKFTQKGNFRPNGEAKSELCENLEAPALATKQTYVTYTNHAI

How the values were obtained:
[1] = biological target: T1, Metabotropic glutamate receptor 4 (Homo sapiens, UniProt Q14833); assay: Binding affinity towards metabotropic glutamate receptor mGluR4a
[2] = biological target: T1, Metabotropic glutamate receptor 4; assay: Effective concentration of compound against forskolin-stimulated cAMP formation in BHK cells expressing mGluR4 receptor; assay type: functional, cell-based
[3] = biological target: T1, Metabotropic glutamate receptor 4; assay: Concentration required for the half-maximal inhibition of cAMP hydrolysis in BHK cells expressing mGluR4; assay type: functional, cell-based
[4] = biological target: T1, Metabotropic glutamate receptor 4; assay: Effective concentration against forskolin-stimulated cAMP formation in BHK cells expressing mGluR4 receptor; assay type: functional, cell-based
[5] = biological target: T1, Metabotropic glutamate receptor 4; assay: Concentration required for the half-maximal inhibition of cAMP formation in BHK cells expressing mGluR4; assay type: functional, cell-based

Row | Structure (SMILES) | Ki [1] [µM] | EC50 [2] [µM] | IC50 ([3]; bhk) [µM] | EC50 [4] [µM] | IC50 [5] [µM] | EC50 [5] [µM] | IC50 [3] [µM]
1 | N[C@@H](C(=O)O)[C@@H]1[C@@H](C(=O)O)[C@H]1c1ccccc1 | > 280 |  |  | > 300 |  |  | > 300
2 | N[C@H](C(=O)O)[C@H]1[C@@H](C(=O)O)[C@H]1c1ccccc1 | > 280 |  |  | > 300 |  |  | > 300
3 | N[C@H](C(=O)O)[C@@H]1[C@@H](C(=O)O)[C@H]1c1ccccc1 | > 280 |  |  | > 300 |  |  | > 300
4 | N[C@H](C(=O)O)[C@H]1[C@@H](C(=O)O)[C@@H]1c1ccccc1 | > 280 |  |  | > 300 |  |  | > 300
5 | N[C@@H](C(=O)O)[C@H]1[C@@H](C(=O)O)[C@@H]1c1ccccc1 | > 280 |  |  | > 300 |  |  | > 300
6 | N[C@@H](C(=O)O)[C@@H]1[C@H](C(=O)O)[C@H]1c1ccccc1 (stereo in doubt; 44) | > 280 |  |  | > 300 |  |  | > 300
7 | N[C@H](C(=O)O)[C@@H]1[C@H](C(=O)O)[C@@H]1c1ccccc1 | > 280 |  |  | > 300 |  |  | > 300
8 | N[C@@H](C(=O)O)[C@H]1[C@@H](C(=O)O)[C@H]1c1ccccc1 | > 280 |  |  | > 300 |  |  | > 300
9 | N[C@@H](C(=O)O)[C@@H]1[C@H](C(=O)O)[C@@H]1c1ccccc1 | > 280 |  |  | > 300 |  |  | > 300

Now from value to compound:

Row | Ki [1] [µM] | EC50 [2] [µM] | IC50 ([3]; bhk) [µM] | EC50 [4] [µM] | IC50 [5] [µM] | EC50 [5] [µM] | IC50 [3] [µM] | Structure (SMILES)
10 | > 280 | > 300 | > 300 |  |  |  |  | N[C@@H](C(=O)O)[C@@H]1[C@H](C(=O)O)[C@H]1c1ccccc1 (stereo in doubt; 47)
11 | > 280 |  |  | > 300 | > 300 |  |  | N[C@H](C(=O)O)[C@H]1[C@H](C(=O)O)[C@H]1c1ccccc1
12 | > 280 |  |  |  | > 300 | > 300 |  | N[C@@H](C(=O)O)[C@H]1[C@H](C(=O)O)[C@H]1c1ccccc1
13 | > 280 |  |  | > 300 |  |  | > 300 | N[C@@H](C(=O)O)[C@H]1[C@H](C(=O)O)[C@@H]1c1ccccc1
14 | > 280 |  |  | > 300 | > 300 |  |  | N[C@@H](C(=O)O)[C@@H]1[C@@H](C(=O)O)[C@@H]1c1ccccc1
15 | > 280 |  |  | > 300 |  |  | > 300 | N[C@H](C(=O)O)[C@H]1[C@H](C(=O)O)[C@@H]1c1ccccc1
16 | 50 |  |  |  |  |  |  | N[C@H](C(=O)O)[C@@H]1[C@@H](C(=O)O)[C@@H]1c1ccccc1
